Test [1] concerns the target T1, Human STING (hSTING-R232) (Homo sapiens, UniProt Q86WV6, H232R).
T1 construct: host or cells: THP1-Dual KI-hSTING-R232 cells
As to the kind of experiment: Activation of human STING signaling in THP1-Dual KI-hSTING-R232 cells (IRF promoter, QUANTI-Luc). It is filed as cell-based. On the procedure: Activation of Human STING Signaling in THP1 Cell Line
The cells were treated with 20 μl/well of compounds at 8 concentrations in duplicate in 96-well plate, and incubate for 24 h. To measure IRF promoter activity, 15 μl of cell culture supernatant was mixed with 45 μl QUANTI-Luc in an opaque 96-well plate and immediately measured using Luminometer; to measure NF-κB promoter activity, 15 μl of supernatant was mixed with 90 μl QUANTI-Blue, and incubated at 37° C. for 90 minutes, and read at OD650 nm. EC50 was calculated by nonlinear regression fit with 4-parameter responsive curve fitting using GraphPad Version 8 software (Table 1).

Sequences of proteins named here, by UniProt entry; tags and fusion partners are left off.
UniProt Q86WV6, whole entry H232R: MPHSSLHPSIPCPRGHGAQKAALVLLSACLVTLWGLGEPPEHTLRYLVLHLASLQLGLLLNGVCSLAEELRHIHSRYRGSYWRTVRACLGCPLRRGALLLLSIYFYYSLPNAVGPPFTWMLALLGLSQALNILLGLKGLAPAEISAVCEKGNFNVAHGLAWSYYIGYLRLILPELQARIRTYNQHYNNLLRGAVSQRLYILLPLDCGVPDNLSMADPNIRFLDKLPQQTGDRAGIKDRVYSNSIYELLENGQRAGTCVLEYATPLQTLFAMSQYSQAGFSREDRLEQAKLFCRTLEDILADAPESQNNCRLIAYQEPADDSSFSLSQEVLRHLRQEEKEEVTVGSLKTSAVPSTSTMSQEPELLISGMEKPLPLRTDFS

The next test concerns the target T2, hSTING R232 (Homo sapiens, UniProt Q86WV6, H232R).
T2 construct: host or cells: 293T-Dual hSTING R232 cells
Kind of test: IRF activation in 293T-Dual hSTING R232 cells (Quanti-Blue). The class given is cell-based. On the procedure: A test compound with a serial of 1:3 dilution was prepared in complete medium, and 20 μL of the compound was added to the corresponding well, and incubated with the cells at 37° C. incubator for 24 hr.
To determine the effect on interferon regulatory factor (IRF) activation, 15 μL of cell culture supernatant was transferred into a fresh 96-half area-well plate, 90 μL of Quanti-Blue was added to each well and incubated at 37° C. for 90 min. OD at 650 nm was recorded. EC50 was calculated by nonlinear regression fit with 4-parameter responsive curve fitting using GraphPad Version 8 software (Table 2).

Structures are written as SMILES.

As a reminder, the EC50 is the concentration at which the effect is half-maximal. A high value points to weaker potency. With `BP1(=O)OC[C@H]2O[C@@H](n3cnc4c(N)ncnc43)[C@H](F)[C@@H]2O[P@@](=O)(SCc2ccc(OC(=O)c3ccc(OCCN=[N+]=[N-])cc3)cc2)OC[C@H]2O[C@@H](n3cnc4c(=O)[nH]c(N)nc43)[C@H](F)[C@@H]2O1` (stereo partly drawn) [Compound A3, ((2R,3R,3aR,7aR,9R,10R,10aR,12S,14aR)-2-(2-amino-6-oxo-1,6-dihydro-9H-purin-9-yl)-9-(6-amino-9H-purin-9-yl)-12-((4-((4-(2-azidoethoxy)benzoyl)oxy)benzyl)thio)-3,10-difluoro-5,12-dioxidooctahydro-2H,7H-difuro[3,2-d:3′,2′-j][1,3,7,9]tetraoxa[2,8]diphosphacyclododecin-5-yl)trihydroborate], the EC50 was determined as 0.002 µM in test [1] and 0.022 µM at hSTING R232.
For `[BH3-][P+]1(O)OC[C@H]2O[C@@H](n3cnc4c(N)ncnc43)[C@H](F)[C@@H]2O[P@@](=O)(SCc2ccc(OC(=O)CCCN=[N+]=[N-])cc2)OC[C@H]2O[C@@H](n3cnc4c(=O)[nH]c(N)nc43)[C@H](F)[C@@H]2O1` (stereo partly drawn) [Compound A2, ((2R,3R,3aR,7aR,9R,10R,10aR,12S,14aR)-2-(2-amino-6-oxo-1,6-dihydro-9H-purin-9-yl)-9-(6-amino-9H-purin-9-yl)-12-((4-((4-azidobutanoyl)oxy)benzyl)thio)-3,10-difluoro-5,12-dioxidooctahydro-2H,7H-difuro[3,2-d:3′,2′-j][1,3,7,9]tetraoxa[2,8]diphosphacyclododecin-5-yl)trihydroborate], the EC50 in test [1] was determined as 0.054 µM; at hSTING R232, 0.07 µM.
